# Assay results from paper PMC4312721 (Biochimica et biophysica acta, 2014).
# By UniProt entry, the sequences of proteins in these tests, tags left out.
# UniProt O14939, whole entry, species assumed: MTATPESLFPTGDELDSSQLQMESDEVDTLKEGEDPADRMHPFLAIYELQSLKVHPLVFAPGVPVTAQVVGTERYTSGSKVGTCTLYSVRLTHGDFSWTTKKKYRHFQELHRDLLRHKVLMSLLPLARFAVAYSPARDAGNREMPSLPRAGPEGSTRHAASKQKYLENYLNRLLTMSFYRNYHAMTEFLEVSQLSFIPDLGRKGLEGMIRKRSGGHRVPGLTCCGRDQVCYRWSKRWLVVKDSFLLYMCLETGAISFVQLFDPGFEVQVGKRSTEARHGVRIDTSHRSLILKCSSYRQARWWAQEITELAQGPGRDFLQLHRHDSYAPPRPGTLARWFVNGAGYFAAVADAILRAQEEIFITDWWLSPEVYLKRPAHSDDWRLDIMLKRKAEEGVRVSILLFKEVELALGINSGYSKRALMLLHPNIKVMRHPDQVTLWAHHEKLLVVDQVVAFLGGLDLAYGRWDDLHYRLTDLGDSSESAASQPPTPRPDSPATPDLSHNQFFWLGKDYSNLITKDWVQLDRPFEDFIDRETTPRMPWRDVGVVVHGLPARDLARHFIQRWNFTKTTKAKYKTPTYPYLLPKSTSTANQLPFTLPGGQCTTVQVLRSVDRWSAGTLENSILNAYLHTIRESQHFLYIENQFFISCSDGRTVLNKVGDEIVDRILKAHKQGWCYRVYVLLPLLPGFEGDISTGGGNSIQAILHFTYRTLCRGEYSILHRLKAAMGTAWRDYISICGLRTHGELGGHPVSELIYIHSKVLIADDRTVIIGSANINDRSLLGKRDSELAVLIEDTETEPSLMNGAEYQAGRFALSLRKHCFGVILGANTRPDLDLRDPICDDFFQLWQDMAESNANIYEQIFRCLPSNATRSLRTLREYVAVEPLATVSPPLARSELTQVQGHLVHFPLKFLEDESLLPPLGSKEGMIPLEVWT
# Assays:
# [1] = target: T1, PLD2 (Homo sapiens, UniProt O14939); assay: Phospholipase; format: biochemical; settings: read-out: EC50, inhibition of PLD2; lysates
# [2] = target: T1, PLD2; assay: Phospholipase activity assay, intact; format: cell-based; settings: read-out: EC50, inhibition of PLD2; whole cells
smiles,measurement,setting,value
"O=C(NCCN1CCC2(CC1)C(=O)NCN2c1cccc(F)c1)c1ccc2ccccc2c1 [NFOT, N-[2-[1-(3-Fluorophenyl)-4-oxo-1,3,-8-triazaspiro[4,5]dec-8-yl]ethyl]-2-naphthalenecarboxamide]",EC50,[1],~10 nM
same,EC50,[2],~10 nM
